Results from patent EP2608671B1, “COMPOUNDS FOR TREATMENT OF CANCER” (Gtx, Inc., priority 2010, dated 2012).

Experiments:
[1] = rat, PO; 10 mg/kg (2r: 4 mg/kg)
[2] = test system: PC-3 prostate tumor xenograft; assay: In vivo antitumor efficacy, PC-3 xenograft; parameters: species or system mouse; details: PC-3 tumors, 10 mg/kg i.v.

Compound	Cmax [1]	tumor growth inhibition (TGI) [2]
COc1cc(C(=O)c2csc(-c3ccccc3)n2)cc(OC)c1OC [1h, (2-Phenyl-thiazol-4-yl)-(3,4,5-trimethoxy-phenyl)-methanone]	212 ng/mL	–
CC(=O)O[C@@]12CO[C@@H]1C[C@H](O)[C@@]1(C)C(=O)[C@H](O)C3=C(C)[C@@H](OC(=O)[C@H](O)[C@@H](NC(=O)OC(C)(C)C)c4ccccc4)C[C@@](O)([C@@H](OC(=O)c4ccccc4)[C@H]21)C3(C)C [Docetaxel, reference compound]	–	84%
